The text below walks through data of patent US20190076507A1, “Artificial Red Blood Cell Having Ability to Inhibit Conversion of Hemoglobin into Methemoglobin” (Public University Corporation Nara Medical University, priority 2016, published 2019).

Protein sequences, listed by entry. Tags and fused reporters are not part of them. Residues count along the entry.
UniProt P68871, 2-147 limits assumed: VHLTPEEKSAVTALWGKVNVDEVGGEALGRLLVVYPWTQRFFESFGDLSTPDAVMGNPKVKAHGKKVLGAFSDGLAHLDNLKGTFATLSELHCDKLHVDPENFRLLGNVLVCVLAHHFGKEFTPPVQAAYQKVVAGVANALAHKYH
UniProt P69905, 2-142 limits assumed: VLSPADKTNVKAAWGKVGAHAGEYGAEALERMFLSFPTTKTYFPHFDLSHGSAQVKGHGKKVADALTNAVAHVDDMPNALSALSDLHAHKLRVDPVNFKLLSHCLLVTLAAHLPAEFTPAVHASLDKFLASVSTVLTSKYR

The data set concerns the target T1, HbO2 (Homo sapiens, UniProt P68871+P69905).
T1 construct: The Hb released by hemolysis was filtered and collected, with the red blood cell membrane components (stroma) separated and removed; from tissue; host or cells: human red blood cells (expired donated blood); heat-treated, nanofiltered, purified and concentrated HbCO, photoconverted to HbO2
Description: Screening of suppressing effect of compounds against autoxidation of HbO2. Type of data set: biochemical. The conditions noted are these: HbO2 10 g/dL, antioxidant 1 g/dL, 37° C., 24 hours. As for the experimental part:
[…], two antioxidants: quercetin and astaxanthin; water-soluble polymers: […] NADH was purchased from Oriental Yeast Co. Ltd., and all the rest were purchased from Sigma-Aldrich (St. Louis, Mo., USA). HbCO solution was transferred to an eggplant flask and irradiated with visible light (halogen lamp; LPL Videeoligtvl-302, LPLCO. Ltd., Tokyo, Japan) under oxygen gas flow to convert to HbO2. […] The conversion ratios to metHb were determined from the visible absorption spectrum. The measurement of spectrum between 300 nm to 500 nm was conducted using a spectrophotometer (V-660, Japan Spectroscopic Company (JASCO)) mounted with a device to control the light scattering to the minimum (an integrating sphere). The atmosphere inside of a Thunberg cuvette was replaced with nitrogen gas and the conversion ratios to metHb were determined from the ratios of absorbance at 405 nm (λmax of metHb) and 430 nm (λmax of deoxyHb).

For the substance “human albumin: “Benesis”, 25% albumin from donated blood for iv injection, 5 g/20 mL, Japanese Blood Products Organization”, the “metHb conversion (%)” value amounted to 32%.
